What was measured:
IDO (SKOV-3 cells) = IDO (SKOV-3 cells) (Homo sapiens, UniProt P14902); experiment: IDO cell-based assay (SKOV-3, IFNγ-induced), kynurenine production; conditions: SKOV-3 ovary adenocarcinoma cells, IFNγ 500 ng/ml, 500 μM L-Trp, 48 h, kynurenine by absorbance at 490 nm
From the text: (§1) Two different types of assay were employed: 1. A TDO and IDO biochemical coupled assay which utilised recombinantly produced and purified TDO and IDO enzymes in combination with the enzyme formamidase. This coupled enzyme system allowed conversion of N-formylkynurenine produced by TDO or IDO activity to kynurenine which was then quantified by fluorescence following addition of Erhlich's Reagent. 2. A cell-based assay for detecting the effect of test compounds on kynurenine production in two different cancer cell types. This assay utilised cancer cells which expressed either TDO or IDO and as such was used as a means of testing compound activity at these two enzymes in a cell-based context. The protocols for these are set out below.
(§2) A172 human glioblastoma (ATCC) were grown in DMEM+2 mM L-glutamine medium supplemented with 10% foetal bovine serum and SKOV-3 ovary adenocarcinoma (ATCC) cells were grown in McCoys 5A+L-glutamax medium supplemented with 15% foetal bovine serum. On the day of assay, cells were detached using trypsin-EDTA (0.25% v/v), re-suspended in assay media (RPMI 1640 phenol red free+L-glutamine supplemented with 10% dialysed foetal bovine serum). […] Kynurenine levels were then quantified by measuring absorbance at 490 nm.

The chains behind the UniProt entries cited, without tags or fusion partners.
UniProt P14902, whole entry: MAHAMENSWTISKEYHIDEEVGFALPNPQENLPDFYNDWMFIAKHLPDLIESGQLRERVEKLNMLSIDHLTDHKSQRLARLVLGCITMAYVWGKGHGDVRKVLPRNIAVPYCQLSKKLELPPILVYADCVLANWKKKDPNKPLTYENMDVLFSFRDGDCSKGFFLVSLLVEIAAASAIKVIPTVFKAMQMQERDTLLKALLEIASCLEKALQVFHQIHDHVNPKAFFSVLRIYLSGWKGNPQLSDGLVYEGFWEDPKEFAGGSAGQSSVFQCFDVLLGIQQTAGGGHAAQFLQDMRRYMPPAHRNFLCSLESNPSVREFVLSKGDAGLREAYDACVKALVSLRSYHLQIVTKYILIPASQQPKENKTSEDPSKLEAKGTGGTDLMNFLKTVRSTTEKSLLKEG
UniProt P48775, whole entry: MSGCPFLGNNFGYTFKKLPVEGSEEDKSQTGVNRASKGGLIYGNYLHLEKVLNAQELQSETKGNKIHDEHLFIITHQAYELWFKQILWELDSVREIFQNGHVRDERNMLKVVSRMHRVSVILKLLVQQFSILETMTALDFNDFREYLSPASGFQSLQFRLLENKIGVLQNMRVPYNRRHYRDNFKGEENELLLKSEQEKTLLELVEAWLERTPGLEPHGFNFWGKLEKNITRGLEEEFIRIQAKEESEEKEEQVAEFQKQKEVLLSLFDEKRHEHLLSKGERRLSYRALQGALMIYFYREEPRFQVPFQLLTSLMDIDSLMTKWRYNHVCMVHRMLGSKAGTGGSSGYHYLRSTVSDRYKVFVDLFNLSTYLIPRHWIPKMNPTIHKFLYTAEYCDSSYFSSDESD

TDO (A172 cells) = TDO (A172 cells) (Homo sapiens, UniProt P48775); experiment: TDO cell-based assay (A172), kynurenine production; conditions: A172 human glioblastoma cells, 500 μM L-Trp, 48 h, kynurenine by absorbance at 490 nm
From the text: as §1, §2

C[C@@H](NC(=O)C1Cc2cc(Cl)ccc2N1)c1ccccc1 (some centres unmarked)
IDO cellular assay (SKOV3) pIC50 (IDO (SKOV-3 cells)): +++ (+++ = pIC50 ≥5.50) | TDO cellular assay (A172) pIC50 (TDO (A172 cells)): + (+ = pIC50 4.50-<5.00)

Source: patent publication US10167257B2, “Indole derivatives for use in medicine” (IOmet Pharma Ltd., priority 2014, dated 2019)
